Laboratory results as given in ChEMBL document CHEMBL1921786.
pIC50: −log10 of the molar value.

Protein sequences, listed by entry. Tags and fused reporters are not part of them.
UniProt Q29550, whole entry, looked up: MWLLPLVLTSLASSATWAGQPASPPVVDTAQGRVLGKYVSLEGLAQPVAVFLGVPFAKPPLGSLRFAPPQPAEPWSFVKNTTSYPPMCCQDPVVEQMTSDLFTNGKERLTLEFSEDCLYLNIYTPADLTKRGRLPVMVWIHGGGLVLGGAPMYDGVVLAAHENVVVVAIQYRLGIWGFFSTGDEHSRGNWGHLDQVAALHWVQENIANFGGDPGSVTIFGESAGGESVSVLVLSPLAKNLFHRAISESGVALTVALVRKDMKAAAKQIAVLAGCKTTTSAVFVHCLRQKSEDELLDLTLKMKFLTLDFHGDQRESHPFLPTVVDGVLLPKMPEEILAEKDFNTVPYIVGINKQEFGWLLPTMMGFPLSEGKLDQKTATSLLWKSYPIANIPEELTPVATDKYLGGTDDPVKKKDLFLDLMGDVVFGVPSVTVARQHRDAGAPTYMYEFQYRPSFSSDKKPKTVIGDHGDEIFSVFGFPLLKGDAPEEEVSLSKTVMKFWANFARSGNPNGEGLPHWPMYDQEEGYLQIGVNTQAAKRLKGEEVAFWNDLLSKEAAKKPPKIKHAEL

target: Liver carboxylesterase (Sus scrofa, UniProt Q29550)

`COC(=O)C(OP(C)(=O)OCc1cn(C[C@@H](NC(=O)CN(Cc2ccccc2)C(=O)[C@H](C)NC(=O)OC(C)(C)C)C(C)C)nn1)C(F)(F)F` (stereo not given in full) and `CC(C)[C@@H](Cn1cc(COP(C)(=O)OC(C(F)(F)F)C(F)(F)F)nn1)NC(=O)CN(Cc1ccccc1)C(=O)C(F)(F)F` (stereo not given in full) are within 0.2 log units of each other in pIC50: 4.10 for the first, 4.07 for the second.

Going from `CC[C@H](C)[C@@H](Cn1cc(COP(C)(=O)OC(C(F)(F)F)C(F)(F)F)nn1)NC(=O)CN(Cc1ccccc1)C(=O)C(F)(F)F` (stereo not given in full) to `C#CCOP(C)(=O)OC(C(F)(F)F)C(F)(F)F` (stereo not given), the pIC50 rises from 4.19 to 4.64 (0.45 log units). The second is the more potent here.

Work on `C#CCOP(C)(=O)OC(C(=O)OC)C(F)(F)F` (stereo not given) yielded a pIC50 of 5.22.
